Experimental data as given in patent publication US20100063074A1, “Cancer Treatment Method” (priority 2004, published 2010).

Columns and labels:
[1] = system: tumor cells overexpressing EGFR or erbB2; conditions: Rusnak et al., 2001b; Xia et al., 2002; cited from earlier work
[2] = system: locally advanced or metastatic transitional cell carcinoma of the urothelial tract; conditions: second-line oral treatment

SMILES	selectivity for tumor cells overexpressing EGFR or erbB2 [1]	tolerability (in words) [2]
CS(=O)(=O)CCNCc1ccc(-c2ccc3ncnc(Nc4ccc(OCc5cccc(F)c5)c(Cl)c4)c3c2)o1 [GW572016, N-{3-chloro-4-[(3-fluorobenzyl)oxy]phenyl}-6-[5-({[2-(methanesulphonyl)ethyl]amino}methyl)-2-furyl]-4-quinazolinamine]	selectively inhibits tumor cells overexpressing EGFR or erbB2	–
CS(=O)(=O)CCNCc1ccc(-c2ccc3ncnc(Nc4ccc(OCc5cccc(F)c5)c(Cl)c4)c3c2)o1.Cc1ccc(S(=O)(=O)O)cc1 [GW572016F, N-{3-Chloro-4-[(3-fluorobenzyl)oxy]phenyl}-6-[5-({[2-(methanesulphonyl)ethyl]amino}methyl)-2-furyl]-4-quinazolinamine ditosylate monohydrate]	–	generally well tolerated
